Reference: patent EP0956864A1, “TISSUE FIBROSIS INHIBITOR” (KYOWA HAKKO KOGYO CO., LTD., priority 1996, dated 1998)

Assay: Arginase activity in blood (plasma) after administration to rats, half life
Format: in vivo, SD rats
Settings: rat; 0.5 ml of 200 µg/ml per rat into penis veniplex; from plasma arginase activity
Experimental: 2. Kinetics of PEG modified rat arginase in rat blood
The change with the passage of time in arginase activity and arginine concentration in the blood of rats to which the PEG modified rat arginase was administered was investigated.
Male SD rats (body weight of 220 to 240 G) were purchased from Nippon SLC and tested after about 1 week breeding. Samples to be given were the rat arginase obtained in 3 of Example 2, the PEG modified rat arginase obtained in 1 of Example 4, and PBS containing 0.1 mM manganese chloride as a negative control. The rat arginase and PEG modified rat arginase were adjusted to a protein concentration of 200 µg/ml with PBS containing 0.1 mM manganese chloride. After inhalation anesthesia with diethyl ether, each sample was administered to penis veniplex at a dose of 0.5 ml per rat by means of a disposable plastic syringe (Terumo). […]
The arginase activity in the rat plasma obtained in 2 (2) of Example 4 was assayed according to the method of Baston et al. (Anal. Biochem., 191, 384 (1990)): ornithine produced by hydrolysis of the substrate arginine with arginase was quantitatively determined by amino acid analysis and the activity of arginase that produces 1 µmol of ornithine per minute at 37°C was defined as 1 U. The produced ornithine was quantitatively determined by the amino acid analysis as described in 2 (3) of Example 4.

B1: PEG modified rat arginase: recombinant rat arginase modified with methoxy polyethylene glycol propionic acid N-hydroxysuccinimide ester, average molecular weight about 5,000 (conjugate, UniProt P07824 1-323, looked up)
Arginase-1: MSSKPKPIEIIGAPFSKGQPRGGVEKGPAALRKAGLVEKLKETEYNVRDHGDLAFVDVPNDSPFQIVKNPRSVGKANEQLAAVVAETQKNGTISVVLGGDHSMAIGSISGHARVHPDLCVIWVDAHTDINTPLTTSSGNLHGQPVAFLLKELKGKFPDVPGFSWVTPCISAKDIVYIGLRDVDPGEHYIIKTLGIKYFSMTEVDKLGIGKVMEETFSYLLGRKKRPIHLSFDVDGLDPVFTPATGTPVVGGLSYREGLYITEEIYKTGLLSGLDIMEVNPTLGKTPEEVTRTVNTAVALTLSCFGTKREGNHKPETDYLKPPK
modifications: methoxy PEG 5000 conjugated
half life in blood: 45 h
